Assay [1] has as its system parental HN5 cells and clones HN5 CR2, HN5 CR6, HN5 CR13, HN5 CR14. Put plainly: WST-1 viability assay of cetuximab resistant HN5 clones (Example 11). In kind it is cell-based, human. As to conditions: HN5 CR2, CR6, CR13, CR14 versus parental; 96 hours. On the procedure: Cells were split twice a week in order to keep cells in exponential growth. […] 0.5 cells/well were plated in 384 well plates. Growth and proliferation of single cell colonies was followed using Novartis Cellavista Imager. The most resistant individual clones, HN5 CR2, HN5 CR6, HN5 CR13, and HN5 CR14, were selected for further characterization (FIG. 36).
On the technique in general: Formazan colour is commonly taken as a measure of viable cells.

In assay [2] the test system is EGFR, HER2 and HER3 in H292 cells. Put plainly: Western blot of EGFR, HER2 and HER3 in whole cell lysates (Example 6). As to conditions: H292, 20 μg/ml, 48 hour. In kind it is cell-based, human.
Assay [3] concerns HN5 cells. As to the kind of experiment: WST-1 metabolic activity, parental and cetuximab resistant cells (Example 5). Type of assay: cell-based, human. As to conditions: 96 hours. The protocol: (§1) Trastuzumab resistant OE19 cells and pertuzumab resistant MDA-MB-175-VII cells were established by exposing parental cells to increasing concentrations of trastuzumab [10-100 μg/ml] and pertuzumab [1-50 μg/ml] respectively, during a period of eight months and 12 months respectively. Cells were split once or twice a week in order to keep cells in exponential growth. The level of resistance was tested every month in a WST-1 viability assay as described in Example 2, until a pool of resistant cells was established. Single cell clones of trastuzumab resistant OE19 cells were generated through limited dilution cloning of the acquired trastuzumab resistant pool of OE19 cells as described in Example 11.
(§2) Metabolic activity was determined after 96 hours incubation using a similar WST-1 assay as described in Example 2.

In assay [4] the test system is patient-derived xenograft models of pancreatic cancer. More on the design: key to Cet. resp. (20 mg/kg): PD: Progressive disease. As to conditions: cited from earlier work.
In assay [5] the test system is fixed parental HN5 cells and resistant clones HN5 CR2, HN5 CR6, HN5 CR13, HN5 CR14. As to the kind of experiment: Cetuximab binding to fixed cells. In kind it is cell-based, human. The following applies: resistant clones compared to parental cells.
The test system of assay [6] is OE19 cells. Put plainly: WST-1 metabolic activity, parental and trastuzumab resistant cells (Example 5). Type of assay: cell-based, human. The following applies: 96 hours. The protocol: as §1, §2

Where two headings read alike, the source gives them in different places.

The values below come from patent US9527913B2, “Humanized pan-HER antibody compositions” (Symphogen A/S, priority 2012, dated 2016).

Take cetuximab: the “viability of resistant clones” value in assay [1] is “resistant clones were viable with increasing concentrations”. The “EGFR, HER2 and HER3 levels in whole cell lysates” value in assay [2] is recorded as “HER2 upregulation”. Moreover, the metabolic activity result was “unaltered” in assay [3] (cetuximab resistant HN5 cells) and “reduced” in assay [3] (parental HN5 cells). In addition, the “Cet. resp. (20 mg/kg)” value in assay [4] (model ST191), in assay [4] (model ST204), in assay [4] (model ST334) and in assay [4] (model ST385) was “PD” each time. Besides, the “half-maximal binding (EC50 value)” value in assay [5] is recorded as “unaltered”. In addition, the maximal binding result in assay [5] is “decreased”.
Turning to trastuzumab, the metabolic activity result is “reduced” in assay [6] (parental OE19 cells) and “unaltered” in assay [6] (trastuzumab resistant OE19 cells). In addition, in assay [4] (model ST334), the “Other (resistance)” value is given as “resist”.
